Only a part is listed here, and it is no random draw. Some results for these compounds are left out of this collection, so the calls shown say nothing about other tests. The source made the active and inactive calls. Rule as the data show it: active = activity change below about -80%; inconclusive = between about -30% and that limit; inactive = weaker than that.
% is scaled to controls: 0 for no effect and ±100 for the full control effect.

The nature of this assay: Small Molecules that selectively kill Giardia lamblia: qHTS.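 Also: parasites exposed to compound for two days anaerobically before the ATP read.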 The conditions noted are these: Giardia lamblia trophozoite viability; at 7.66 µM; active compounds read low. The source says:
Giardia lamblia is a human pathogen afflicting impoverished nations, and the most common cause of outbreaks of diarrhea in the United States. Giardia has been classified by the CDC as a category B bioterrorism organism. The favored anti giardiasis drugs in the US are metronidazole or tinidazole, compounds that have undesirable side effects. Moreover, increasing resistance to drug regimes and recurrence are a concern. It is thus clear that alternative drug treatments are needed.
In a collaboration between the University of Maryland, College Park and the NIH Chemical Genomics Center, a bioluminescence Giardia viability assay based on the trophozoites' ATP content was developed. This assay is suitable for high throughput screening, and miniaturized the assay for compound screening in 1536-well plates. The goal of the project is to screen the Molecular Libraries Small Molecule Repository (MLSMR) for compounds that selectively kill Giardia trophozoites.
NIH Chemical Genomics Center [NCGC]
NIH Molecular Libraries Probe Centers Network [MLPCN]
Assay Submitter (PI): Osnat Herzberg, University of Maryland, College Park, MD.
1. Dispense 2 ul/well media
2. Dispense 23 nl/well compounds
3. Dispense 4 ul/well Giardia trophozoites at a concentration of 100 cells/well
4. Incubate 48 hrs at 37 deg C anaerobically
5. Dispense 4 ul/well ATPLite 1-Step Luminescence assay kit
6. Incubate 15-30 min at room temperature
7. Read luminescence signal on ViewLux plate reader
A general note: In qHTS, concentration-response curves come from the screen itself.
In the case of `C=CCN1CCN(CCOC(=O)C(O)(c2ccccc2)c2ccccc2)CC1`, the activity change is inactive: 16%. Regarding `O=C(NCC1(N2CCCCC2)CCCCC1)c1cc(F)c(F)cc1Cl`, the activity change was inactive: -10.8%. As to `Cc1cc(C(=O)NCC2(N3CCCCC3)CCCCC2)ccc1[N+](=O)[O-]`, the activity change is inactive: -28.6%. Consider `CCN1CCCC(OC(=O)C2(O)c3ccccc3C=Cc3ccccc32)C1` (stereo not given), for which the activity change was inactive: 7.98%. Turning to `O=C(NCC1(N2CCCCC2)CCCCC1)c1cccc(Br)c1`, the activity change was inactive: 0.943%. Then `COc1ccc(C(=O)NCC2(N(C)C)CCCCC2)cc1`, with inactive: 4.07%. In the case of `Cc1ccccc1C(=O)NCC1(N2CCCCC2)CCCCC1`, the activity change was inactive: 3.55%. For `CN(C)C1CCCC1OC(=O)C(O)(c1ccccc1)c1ccccc1` (stereo not given), the activity change was inactive: -11.5%.

Regarding `CN(C)c1ccc(C(=O)NCC2(N(C)C)CCCCC2)cc1`, the activity change is inactive: -3.89%. On to `CC(C)N1C(=O)CC2(CCN(CCOC(=O)C(O)(c3ccccc3)c3ccccc3)CC2)C1=O`, for which the activity change is inactive: -9.7%. For the compound `CCN(CC)CC(C)C(C)OC(=O)C(O)(c1ccccc1)c1ccccc1` (stereo not given), the activity change was inactive: 5.63%.

Take `COc1cc(SC)ccc1C(=O)NCC1(N(C)C)CCCCC1`: the activity change is inactive: -9.09%.

On to `Cc1ccc(C(=O)NCC2(N3CCCCC3)CCCCC2)cc1`, for which the activity change is inactive: 71.2%. In the case of `O=C(NCC1(N2CCCCC2)CCCCC1)c1cc([N+](=O)[O-])ccc1Cl` it was inactive: 8.4%; in that of `CN1[C@@H]2CC[C@H]1CC(OC(=O)C(O)(c1ccccc1)c1ccccc1)C2` (stereo not given in full), inactive: 2.46%; in that of `COc1ccc(Br)c(C(=O)NCC2(N3CCCCC3)CCCCC2)c1`, inactive: -4.85%. On to `CN(C)c1cccc(C(=O)NCC2(N(C)C)CCCCC2)c1`, for which the activity change was inactive: -8.56%. As for `CC(C)Oc1ccc(C(=O)NCC2(N(C)C)CCCCC2)cc1`, the activity change was inactive: -1.48%.

In the case of `O=C(OCCN1CCCC1)C(O)(c1ccccc1)c1ccccc1`, the activity change was inactive: -15.3%. `O=C(OC1CN2CCC1CC2)C(CO)(c1ccccc1)c1ccccc1` (stereo not given): the activity change is inactive: 8.82%. Take `COc1cccc(C(=O)NCC2(N3CCCCC3)CCCCC2)c1`: the activity change was inactive: -17%. Take `COc1ccc(Cl)cc1C(=O)NCC1(N(C)C)CCCCC1`: the activity change is inactive: 5.66%. In the case of `O=C(NCC1(N2CCCCC2)CCCCC1)c1cccc(Cl)c1` it was inactive: 6.79%; in that of `CN(C)C1(CNC(=O)c2ccc(Br)cc2)CCCCC1`, inactive: -5.79%; in that of `COc1cc(C(=O)NCC2(N(C)C)CCCCC2)c([N+](=O)[O-])cc1OC`, inactive: 2.42%.

Source of the values: PubChem BioAssay AID540267 (National Center for Advancing Translational Sciences (NCATS), 2011).
